From patent US20250163168A1, “NOVEL ANTIBODIES AND ANTIBODY CONJUGATES FOR THE TREATMENT OF METABOLIC DISORDERS” (PFIZER INC., priority 2023, published 2025)

Sequences of proteins named here, by UniProt entry; tags and fusion partners are left off. Residues count along the entry.
UniProt P43220, 24-463: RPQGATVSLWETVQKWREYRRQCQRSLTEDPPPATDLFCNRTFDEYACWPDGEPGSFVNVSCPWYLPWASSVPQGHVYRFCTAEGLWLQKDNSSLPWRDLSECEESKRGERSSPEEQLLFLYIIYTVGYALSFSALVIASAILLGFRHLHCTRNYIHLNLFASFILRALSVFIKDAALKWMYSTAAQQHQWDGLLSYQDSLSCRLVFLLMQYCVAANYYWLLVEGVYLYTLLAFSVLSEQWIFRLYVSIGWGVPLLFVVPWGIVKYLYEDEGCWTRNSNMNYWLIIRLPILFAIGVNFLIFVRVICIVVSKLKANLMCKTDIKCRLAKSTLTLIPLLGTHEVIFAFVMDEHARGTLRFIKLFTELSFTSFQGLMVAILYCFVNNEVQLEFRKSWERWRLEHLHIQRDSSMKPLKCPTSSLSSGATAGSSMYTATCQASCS

Target: T1, human GLP1R (Homo sapiens, UniProt P43220)
T1 construct: expressed in transfected cells; host or cells: CHO
Experiment: GLP1R agonist cAMP assay in CHO cells stably expressing human GLP1R
Type: cell-based
Details: relative to maximal effect of human GLP-1, read-out: GLP1R agonist mode Emax (%)
Method: cAMP assay: The in vitro agonist potency of the peptides disclosed herein was evaluated using a cell-based assay measuring cAMP production. CHO cells stably expressing human GLP1R, or both human GIPR and GLP1R, were incubated with increasing concentrations of agonists for 30 minutes at 37° C. Cells were lysed and cAMP was detected using a homogenous time resolved fluorescence detection kit, as described by the manufacturer (Revvity). […] The EC50 and maximum effect (Emax) values were then determined from the normalized effects and agonist concentrations using a four-parameter logistic equation (GraphPad Prism).

| Emax [%] | Structure (SMILES) |
| --- | --- |
| 104 | CC[C@H](C)[C@H](NC(=O)[C@H](Cc1ccccc1)NC(=O)[C@H](CCC(=O)O)NC(=O)[C@H](CCCCN)NC(=O)[C@H](C)NC(=O)[C@H](C)NC(=O)[C@H](CCC(N)=O)NC(=O)C(C)(C)NC(=O)[C@H](CCC(=O)O)NC(=O)[C@H](CC(C)C)NC(=O)[C@H](Cc1ccc(O)cc1)NC(=O)[C@H](CO)NC(=O)[C@H](CO)NC(=O)[C@@H](NC(=O)[C@H](CC(=O)O)NC(=O)[C@H](CO)NC(=O)[C@@H](NC(=O)[C@H](Cc1ccccc1)NC(=O)[C@@H](NC(=O)CNC(=O)[C@H](CCC(=O)O)NC(=O)C(C)(C)NC(=O)[C@@H](N)Cc1c[nH]cn1)[C@@H](C)O)[C@@H](C)O)C(C)C)C(=O)N[C@@H](C)C(=O)N[C@@H](Cc1c[nH]c2ccccc12)C(=O)N[C@@H](CC(C)C)C(=O)N[C@H](C(=O)N[C@@H](CCCCN)C(=O)NCC(=O)N[C@@H](CCCNC(=N)N)C(=O)NCC(=O)NCC(=O)NCC(=O)NCC(=O)NCC(=O)N[C@@H](CO)C(=O)NCC(=O)NCC(=O)NCC(=O)NCC(=O)N[C@@H](CO)C(=O)NCC(=O)NCC(=O)NCC(=O)NCC(=O)N[C@@H](CO)C(=O)N[C@@H](CCCCNC(=O)CBr)C(N)=O)C(C)C [compound 150] |
| 106 | CC[C@H](C)[C@H](NC(=O)[C@H](Cc1ccccc1)NC(=O)[C@H](CCC(=O)O)NC(=O)[C@H](CCCCN)NC(=O)[C@H](C)NC(=O)[C@H](C)NC(=O)[C@H](CCC(N)=O)NC(=O)[C@H](CCC(=O)O)NC(=O)[C@H](CCC(=O)O)NC(=O)[C@H](CC(C)C)NC(=O)[C@H](Cc1ccc(O)cc1)NC(=O)[C@H](CO)NC(=O)[C@H](CO)NC(=O)[C@@H](NC(=O)[C@H](CC(=O)O)NC(=O)[C@H](CO)NC(=O)[C@@H](NC(=O)[C@H](Cc1ccccc1)NC(=O)[C@@H](NC(=O)CNC(=O)[C@H](CCC(=O)O)NC(=O)C(C)(C)NC(=O)[C@@H](N)Cc1c[nH]cn1)[C@@H](C)O)[C@@H](C)O)C(C)C)C(=O)N[C@@H](C)C(=O)N[C@@H](Cc1c[nH]c2ccccc12)C(=O)N[C@@H](CC(C)C)C(=O)N[C@H](C(=O)N[C@@H](CCCCN)C(=O)NCC(=O)N[C@@H](CCCNC(=N)N)C(=O)NCC(=O)NCC(=O)NCC(=O)NCC(=O)NCC(=O)N[C@@H](CO)C(=O)NCC(=O)NCC(=O)NCC(=O)NCC(=O)N[C@@H](CO)C(=O)NCC(=O)NCC(=O)NCC(=O)NCC(=O)N[C@@H](CO)C(=O)N[C@@H](CCCCNC(=O)CBr)C(N)=O)C(C)C [compound 149] |
